Test results as given in US9617517B2, “Small chemical compound which promotes induction of differentiation of stem cells into insulin-producing cells and method for inducing differentiation of stem cells into insulin-producing cells using said small chemical compound” (NATIONAL UNIVERSITY CORPORATION KUMAMOTO UNIVERSITY, priority 2011, dated 2017).

Tested on: mouse ES cells (Pdx1/GFP)
Test: Differentiation of mouse ES cells into insulin positive cells on nano fiber plate, immunostaining and quantitative image analysis
Settings: similar separate experiments

## pirlindole mesylate
  induction of the differentiation of stem cells into insulin-producing cells: induce the differentiation of stem cells into insulin-producing cells
